One assay addresses T1, human GLP-1 R (Homo sapiens, UniProt P43220).
T1 construct: expressed in transfected cells
The experiment in a line: Human GLP-1 receptor (GLP-1-R) activity assay, cAMP induction (AlphaScreen) in HEK293 cells. The class given is cell-based. The note with it: read-out: GLP1 R (EC50 in nM); Table 2b (most comprehensive data); average EC50; cAMP in HEK293 cells expressing human GLP-1 R.

Protein sequences, listed by entry. Tags and fused reporters are not part of them. Residues count along the entry.
UniProt P43220, 24-463: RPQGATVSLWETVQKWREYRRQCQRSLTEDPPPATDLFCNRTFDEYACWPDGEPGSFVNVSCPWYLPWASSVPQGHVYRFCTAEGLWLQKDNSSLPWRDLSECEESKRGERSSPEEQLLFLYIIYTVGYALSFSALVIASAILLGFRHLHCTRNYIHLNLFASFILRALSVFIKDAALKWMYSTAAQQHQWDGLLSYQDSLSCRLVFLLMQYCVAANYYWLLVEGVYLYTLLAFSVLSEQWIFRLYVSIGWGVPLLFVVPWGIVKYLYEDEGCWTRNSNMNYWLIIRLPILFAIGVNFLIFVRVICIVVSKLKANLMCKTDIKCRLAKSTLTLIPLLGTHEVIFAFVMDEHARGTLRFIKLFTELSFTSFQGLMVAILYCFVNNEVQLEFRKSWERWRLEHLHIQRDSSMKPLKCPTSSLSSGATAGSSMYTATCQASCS

For a further assay, the target named is T2, human GIP R (Homo sapiens, UniProt P48546).
T2 construct: expressed in transfected cells
T2 sequence (P48546 22-466): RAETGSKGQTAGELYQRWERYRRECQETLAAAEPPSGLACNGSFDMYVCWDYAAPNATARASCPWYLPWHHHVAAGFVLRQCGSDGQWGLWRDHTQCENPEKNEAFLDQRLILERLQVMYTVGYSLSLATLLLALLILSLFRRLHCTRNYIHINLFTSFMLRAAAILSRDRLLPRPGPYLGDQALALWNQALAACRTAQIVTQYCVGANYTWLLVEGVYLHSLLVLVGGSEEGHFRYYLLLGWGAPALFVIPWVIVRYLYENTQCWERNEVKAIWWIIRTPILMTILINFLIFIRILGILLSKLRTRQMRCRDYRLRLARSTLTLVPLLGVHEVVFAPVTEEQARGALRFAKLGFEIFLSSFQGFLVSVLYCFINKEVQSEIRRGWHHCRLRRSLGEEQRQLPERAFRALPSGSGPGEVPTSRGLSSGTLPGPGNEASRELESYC
Put plainly: Human GIP receptor (GIP-R) activity assay, cAMP induction (AlphaScreen) in HEK293 cells. The class given is cell-based. The note with it: read-out: GIP R (EC50 in nM); Table 2b (most comprehensive data); average EC50; cAMP in HEK293 cells expressing human GIP R. A general note: In Alpha technology, singlet oxygen from a donor bead excites a nearby acceptor bead.

Broadly, the EC50 is the concentration giving half of the maximal effect. Turning to glucagon [reference compound], the figures for the EC50 on human GLP-1 R and on human GIP R were 0.48 nM and over 10 nM, respectively.

(Values after patent publication US20210363213A1, “GLUCAGON-GLP-1-GIP TRIPLE AGONIST COMPOUNDS” (priority 2013, published 2021).)
